Assay results taken from patent US8916516B2, “Treatment of fungal and/or protist infections” (AI2 Limited, priority 2005, dated 2014).

Tested on: fungi
Format: cell-based
Conditions: overall statement on the fungi tested
Method: Four compounds were supplied as an aqueous solution, 400 μM. Serial dilutions of each test peptide were prepared in addition to a control, which was a conventional antifungal drug, Amphoteracin B. Amphteracin B is obtained from Invitrogen or Melford laboratories.
Initial testing of the peptides was carried out against the following organisms: • 1) Aspergillus fumigatus AF293 (culture collection strain NCPF7367) • 2) Candida albicans 6862 (clinical isolate) • 3) Fusarium spp 5889 (clinical isolate) • 4) Fusarium spp 6507 (clinical isolate) • 5) Aspergillus terreus (clinical isolate) • 6) Aspergillus niger (clinical isolate) • 7) Staphylococcus aureus (Oxford strain, which is a standard reference strain used in MIC testing)
The bacterium S. aureus was tested with each of the peptides as a control. A suspension of each organism in an appropriate growth medium was added to the, dilutions of the peptides in order to give concentration ranges of 40 μM to 0.04 μM for each of the peptides, and 64-0.025 μg/ml for amphotericin B. Fungal strains were tested in RPMI media. RPMI is standard Roswell Park Memorial Institute medium (Morton, H. C., (1970) A survey of Commercially Available Tissue Culture Media. In Vitro 6: 89-108).
Candida and S. aureus plates were read after 24 hrs incubation and the Aspergillus and Fusarium strains read after 48 hrs. […]

Sequence: QSTEELRVRLASHLRKLRKRLL (Artificial polypeptide designated GIN 11) [contains only one RKR motif]
- antifungal activity (in words): useful antifungal agent
